# The entries are a selection whose mix differs from that of the whole data set. The source made the active and inactive calls. Rule as the data show it: active = inhibition above about 37%; inactive = the rest.
# By UniProt entry, the sequences of proteins in these tests, tags left out.
# UniProt P63165, whole entry: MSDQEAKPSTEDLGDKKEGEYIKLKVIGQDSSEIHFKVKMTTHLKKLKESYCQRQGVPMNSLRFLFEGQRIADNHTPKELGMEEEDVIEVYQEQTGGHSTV
# Target: Small ubiquitin-related modifier 1 (Homo sapiens) (UniProt P63165)
# Test: SUMO1 binding to interaction partners, disruption – biochemical, uHTS, primary screen (AID 602429)
# Conditions: SUMO1 binding to a labelled peptide, TR-FRET, 1 h; at 20 µM; stronger effect = higher value
row,SMILES,inhibition
1,Fc1ccccc1NC1CCN(Cc2ccccc2)CC1,inactive: -1.69%
2,Cc1ccc(C(=O)NCC2(N3CCCCC3)CCCCC2)o1,inactive: 1.97%
3,Cc1ccc(NC2(C#N)CCN(Cc3ccccc3)CC2)cc1,inactive: -8.96%
4,CCC(c1nnnn1C1CCCCC1)N1CCC(n2c(=O)[nH]c3ccccc32)CC1 (stereo not given),inactive: -2.21%
5,COc1cccc(C(c2nnnn2C2CCCCC2)N2CCC(n3c(=O)[nH]c4ccccc43)CC2)c1OC (stereo not given),inactive: 3.45%
6,CC(=O)N(c1ccccc1)C1CCNCC1,inactive: -0.0709%
7,COc1cc(OC)cc(C(=O)NCC2(N3CCCCC3)CCCCC2)c1,inactive: -1.38%
8,O=c1[nH]c2ccccc2n1C1CCN(C(c2ccnc3ccccc23)c2nnnn2C2CCCCC2)CC1 (stereo not given),inactive: 6.19%
9,CN(C)c1ccc(C(=O)NCC2(N3CCCCC3)CCCCC2)cc1,inactive: 2.63%
10,Cn1c(=O)[nH]cc(N(CCCl)CCCl)c1=O,inactive: -0.172%
11,O=C(NCC1(N2CCCCC2)CCCCC1)c1ccco1,inactive: -6.02%
12,CCN1CCC(Nc2cccc(F)c2)CC1,inactive: 0.427%
13,COc1ccc(C(c2nnnn2C2CCCCC2)N2CCC(n3c(=O)[nH]c4ccccc43)CC2)cc1 (stereo not given),inactive: 12.6%
14,CC(C)(C)n1nnnc1C(c1ccnc2ccccc12)N1CCC(n2c(=O)[nH]c3ccccc32)CC1 (stereo not given),inactive: 4.18%
15,Cc1ccccc1NC1(C#N)CCN(Cc2ccccc2)CC1,inactive: -2.63%
16,O=C(O)C1(Nc2ccccc2)CCN(Cc2ccccc2)CC1,inactive: 2.55%
17,NN(c1ccccc1)C1CCN(CCc2ccccc2)CC1,inactive: 6.5%
18,CC(C)(C)OC(=O)N1CCC(Nc2ccccc2)CC1,inactive: -2.72%
19,O=c1[nH]c2ccccc2n1C1CCN(C(c2cc3ccccc3o2)c2nnnn2C2CCCC2)CC1 (stereo not given),inactive: -8.2%
20,CCCOc1ccc(C(=O)NCC2(N(C)C)CCCCC2)cc1,inactive: 3.38%

row,SMILES,inhibition
1,CN1CCC(Nc2ccc(F)c(Cl)c2)CC1,inactive: 4.01%
2,CCOc1ncccc1C(=O)NCC1(N2CCOCC2)CCCCC1,inactive: 3.36%
3,CN1CCC(Nc2ccc(Cl)cc2)CC1,inactive: 0.334%
4,COc1cccc(C(c2nnnn2C2CCCC2)N2CCC(n3c(=O)[nH]c4ccccc43)CC2)c1OC (stereo not given),inactive: 4.09%
5,COc1cc(OC)cc(C(=O)NCC2(N3CCOCC3)CCCCC2)c1,inactive: 3.46%
6,COc1cccc(C(=O)N(c2cc(C)cc(C)c2)C2CCN(C(=O)OC(C)(C)C)CC2)c1,inactive: -1.73%
7,CCC(CO)(C(=O)OC1CN2CCC1CC2)c1ccccc1 (stereo not given),inactive: 0.47%
8,O=c1[nH]c2ccccc2n1C1CCN(C(c2cccs2)c2nnnn2C2CCCCC2)CC1 (stereo not given),inactive: -2.62%
9,O=c1[nH]c2ccccc2n1C1CCN(C(c2ccnc3ccccc23)c2nnnn2C2CCCC2)CC1 (stereo not given),inactive: -0.587%
10,COc1ccc(C(=O)NCC2(N3CCOCC3)CCCCC2)cc1OC,inactive: -5.88%
11,COc1cc(C(=O)NCC2(N3CCOCC3)CCCCC2)cc(OC)c1C,inactive: -2.79%
12,CCCCn1nnnc1C(c1ccccc1)N1CCC(n2c(=O)[nH]c3ccccc32)CC1 (stereo not given),inactive: 4.47%
13,O=C(NCC1(N2CCOCC2)CCCCC1)c1cc(Br)ccc1Cl,inactive: 1.54%
14,O=c1[nH]c2ccccc2n1C1CCN(C(c2cccs2)c2nnnn2C2CCCC2)CC1 (stereo not given),inactive: 0.903%
15,O=C(OC1CN2CCC1CC2)C1c2ccccc2C=Cc2ccccc21 (stereo not given),inactive: 0.285%
16,CCCCn1nnnc1C(c1cccc(OC)c1OC)N1CCC(n2c(=O)[nH]c3ccccc32)CC1 (stereo not given),inactive: 0.416%
17,CCOC(=O)N1CCC(Nc2ccc(C)cc2)CC1,inactive: 0.45%
18,COc1cccc(C(c2nnnn2C(C)(C)C)N2CCC(n3c(=O)[nH]c4ccccc43)CC2)c1OC (stereo not given),inactive: 2.12%
19,N/C(=N\O)c1c(N)no[n+]1[O-],inactive: -2.65%
20,N#Cc1ccc(C(=O)NCC2(N3CCCCC3)CCCCC2)cc1,inactive: -2.54%

row,SMILES,inhibition
1,CC(C)(C)OC(=O)N1CCC(N(C(=O)c2ccccc2)c2ccc(Cl)cc2)CC1,inactive: -3.11%
2,CC(C)(C)n1nnnc1C(c1cccc2ccccc12)N1CCC(n2c(=O)[nH]c3ccccc32)CC1 (stereo not given),inactive: 7.93%
3,CN(C)C1(CNC(=O)c2cccc(C#N)c2)CCCCC1,inactive: 3.01%
4,Cc1cc(N(CCCl)CCCl)ccc1C=O,inactive: 35.7%
5,CCCN1CCC(Nc2cc(OC)cc(OC)c2)CC1,inactive: -6.26%
6,O=c1[nH]c2ccccc2n1C1CCN(C(c2ccccc2)c2nnnn2C2CCCC2)CC1 (stereo not given),inactive: 5.95%
7,c1ccc(CN2CCC(Nc3ccccc3)CC2)cc1,inactive: -2.14%
8,O=c1[nH]c2ccccc2n1C1CCN(C(c2ccccc2OC(F)(F)F)c2nnnn2C2CCCC2)CC1 (stereo not given),inactive: -0.931%
9,N#CC1(Nc2ccccc2)CCN(CCc2ccccc2)CC1,inactive: -0.741%
10,CCN1CCC(Nc2ccc(Cl)cc2)CC1,inactive: 3.72%
11,CSc1ccc(C(=O)NCC2(N3CCOCC3)CCCCC2)cc1,inactive: 2.68%
12,O=C(NCC1(N2CCCCC2)CCCCC1)c1cccc([N+](=O)[O-])c1,inactive: -15%
13,O=C(NCC1(N2CCCCC2)CCCCC1)c1ccc(OC(F)F)cc1,inactive: 3.41%
14,CC(C)(C)n1nnnc1C(c1ccccc1OC(F)(F)F)N1CCC(n2c(=O)[nH]c3ccccc32)CC1 (stereo not given),inactive: 4.6%
15,COc1cc(C(=O)NCC2(N3CCCCC3)CCCCC2)ccc1OC(F)F,inactive: 5.03%
16,O=C(NCC1(N2CCOCC2)CCCCC1)c1cc(=O)[nH]c2ccccc12,inactive: 4.65%
17,CN1CCN(CCOC(=O)C(O)(c2ccccc2)c2ccccc2)CC1,inactive: 0.0642%
18,CC(C)c1ccc(C(=O)NCC2(N3CCOCC3)CCCCC2)cc1,inactive: -0.577%
19,COc1ccc(NC2CCN(C(=O)OC(C)(C)C)CC2)cc1,inactive: -3.3%
20,CCCCn1nnnc1C(c1cccc2ccccc12)N1CCC(n2c(=O)[nH]c3ccccc32)CC1 (stereo not given),inactive: 3.61%
